Sequences of proteins named here, by UniProt entry; tags and fusion partners are left off.
Guanine nucleotide-binding protein G(i) subunit alpha-3 (Rattus norvegicus), P08753, UniProt P08753, whole entry, looked up: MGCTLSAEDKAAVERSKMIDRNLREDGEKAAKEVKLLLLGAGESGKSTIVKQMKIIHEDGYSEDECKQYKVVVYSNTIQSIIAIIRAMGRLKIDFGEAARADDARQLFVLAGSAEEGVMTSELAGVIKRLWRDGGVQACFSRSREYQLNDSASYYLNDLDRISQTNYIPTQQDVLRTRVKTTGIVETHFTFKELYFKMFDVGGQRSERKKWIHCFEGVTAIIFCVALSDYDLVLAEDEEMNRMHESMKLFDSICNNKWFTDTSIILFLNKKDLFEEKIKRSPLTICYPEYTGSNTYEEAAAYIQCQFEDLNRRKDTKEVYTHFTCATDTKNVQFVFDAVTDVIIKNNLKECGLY

# The entries come from a sample that favours hits as a whole.
# GIV-Gai inh = inhibitors of GIV peptide binding to Galpha-i3, primary screen, biochemical, fluorescence polarization, FITC-GIV GBA peptide, rat Galphai3 | Guanine nucleotide-binding protein G(i) subunit alpha-3 (Rattus norvegicus), P08753 | 90 min; active compounds read low; scaled: aluminum fluoride 0%, vehicle 100% | 210,000 tested, 0.42% active | AID 1224905, 2016 | percent of control (FP), % (no concentration beside the values);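 active means replicate mean at 85% of control or lower, very high polarization wells dropped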;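 further: wells of about 15 µL received 100 nL stock; the first replicate is given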
# GIV Gai FP conf = inhibitors of GIV peptide binding to Galpha-i3, confirmation, biochemical, fluorescence polarization, FITC-GIV peptide, rat Galphai3; shares compounds with GIV-Gai inh; hits give low values; fluorescence polarization, mP at 100 µM; 580 compounds, 38% hits; AID 1259350, 2017;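 active = inhibition score of 15 or more, meaning 100 minus mean polarization as percent of control over three replicates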;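 note: lower mP means peptide displaced from Galphai3 so more inhibition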
# GIV Gai AS conf = inhibitors of GIV binding to Galpha-i3, confirmation, orthogonal assay for GIV-Galpha-i inhibitor project, biochemical, AlphaScreen, His-GIV, GST-Galphai3. AlphaScreen counts at 100 µM. 580 compounds, 39% hits. shares compounds with GIV-Gai inh. purified proteins, 90 min; hits give low values;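 active = inhibition score at or above a set limit, where the score is 100 minus the three-replicate mean percent of control signal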
# * = called active by the depositor.
SMILES,GIV-Gai inh,others
COc1ccc2c(c1)c(/C=C/c1nc3ccccc3c(=O)n1-c1cccc(C)c1)c(C)n2C,66*,GIV Gai FP conf=72;GIV Gai AS conf=43303
COc1ccc(-n2c(/C=C/c3c(C)n(C)c4ccc(OC)cc34)nc3ccccc3c2=O)cc1,106,
COc1ccc2c(c1)c(/C=C/c1nc3ccccc3c(=O)n1-c1ccccc1)c(C)n2C,107,
CC(C)CN(CC(C)C)S(=O)(=O)N1CCC(C(=O)NC(C)C)CC1,100,
COc1ccc2[nH]c3c(=O)n(CCCC(=O)NCc4ccco4)c(=S)[nH]c3c2c1,105,
Cc1oc(-c2ccccc2)nc1CSc1nc2ccccc2n2c(C)nnc12,112,
C=CCN(c1ccccc1)S(=O)(=O)c1ccc2c(c1)NC(=O)CS2,105,
CCOc1cc(/C=C2/C(=O)N(c3ccccc3)N=C2C)ccc1OS(=O)(=O)c1ccccc1,104,
COc1cc(/C=C2/C(=O)N(c3ccccc3)N=C2C)ccc1OS(=O)(=O)c1ccccc1[N+](=O)[O-],106,
COc1cc(/C=C2/C(=O)N(c3ccccc3)N=C2C)ccc1OS(=O)(=O)c1ccccc1,81*,GIV Gai FP conf=60*;GIV Gai AS conf=21149*
OCCn1c2ccccc2c2cc(Cl)ccc21,99,
Cc1ccc(NC(=O)Cn2cnc3sc(C(=O)N4CCN(c5ccc(F)cc5)CC4)c(C)c3c2=O)cc1Cl,116,

# Quoted at random: 2 entries already listed
SMILES,GIV-Gai inh,others
CCOc1cc(/C=C2/C(=O)N(c3ccccc3)N=C2C)ccc1OS(=O)(=O)c1ccccc1,104,
COc1ccc2c(c1)c(/C=C/c1nc3ccccc3c(=O)n1-c1cccc(C)c1)c(C)n2C,66*,GIV Gai FP conf=72;GIV Gai AS conf=43303

# Gathered by group: those above with a Cl atom
SMILES,GIV-Gai inh,others
OCCn1c2ccccc2c2cc(Cl)ccc21,99,
Cc1ccc(NC(=O)Cn2cnc3sc(C(=O)N4CCN(c5ccc(F)cc5)CC4)c(C)c3c2=O)cc1Cl,116,

# Continued.
SMILES,GIV-Gai inh,others
CCn1c(NNC(=O)c2cccnc2)nc2ccccc21,97,
CCCc1cc(=O)n2[nH]c(CNc3ccccc3F)nc2n1,105,
Cc1ccc(-c2c(C(F)(F)F)nn3c(-n4nc(C)cc4C)cc(C)nc23)cc1,93,GIV Gai FP conf=65;GIV Gai AS conf=45290
Cc1cc(-n2nc(C)cc2C)n2nc(C(F)(F)F)c(-c3ccccc3Cl)c2n1,108,
Cc1cc(N2CCOCC2)n2nc(C)c(-c3ccc(F)cc3)c2n1,110,
Cc1cc(N2CCC3(CC2)OCCO3)n2nc(C)c(-c3ccc(Cl)cc3)c2n1,105,
Cc1ccc(-c2c(C(F)(F)F)nn3c(N4CCN(C)CC4)cc(C)nc23)cc1,97,
Cc1cc(N2CCOCC2)n2nc(C(F)(F)F)c(-c3ccc(Cl)cc3)c2n1,88,GIV Gai FP conf=66;GIV Gai AS conf=42837
COc1cccc(Oc2nc3ccc(Cl)cc3n3cnnc23)c1,99,
S=c1oc(-c2ccccc2)nn1CNc1ccccc1,105,
Cc1cc(O)ccc1NC(=O)c1cccc(-n2cnnc2)n1,104,
CCOC(=O)c1c(NC(=O)CN2C(=O)/C(=C/c3ccc(OC)c(OC)c3)SC2=S)sc2c1CCCC2,102,
Cc1ccc(S(=O)(=O)N2CCCC(c3nc(-c4ccc(Br)cc4)no3)C2)cc1 (stereo unspecified),98,
CCOC(=O)c1ccccc1Nc1nc2ccc(C)cc2n2nnnc12,107,
COc1ccc(OC)c(CNc2nc3ccc(C)cc3n3nnnc23)c1,130,
COc1ccccc1Nc1nc2ccc(C)cc2n2nnnc12,74*,GIV Gai FP conf=69;GIV Gai AS conf=51081
Cc1cc(-c2ccc(=O)[nH]n2)cc(S(=O)(=O)NCc2ccccn2)c1C,104,
Cc1ccc(C(c2c(C)[nH]n(-c3ccccc3)c2=O)c2c(C)[nH]n(-c3ccccc3)c2=O)cc1,107,
COc1ccc(C(c2c(C)[nH]n(-c3ccccc3)c2=O)c2c(C)[nH]n(-c3ccccc3)c2=O)cc1,91,
Cc1[nH]n(-c2ccccc2)c(=O)c1C(c1cc(Cl)ccc1O)c1c(C)[nH]n(-c2ccccc2)c1=O,100,
Cc1[nH]n(-c2ccccc2)c(=O)c1C(c1ccc(F)cc1)c1c(C)[nH]n(-c2ccccc2)c1=O,72*,GIV Gai FP conf=61;GIV Gai AS conf=24882*
Cc1[nH]n(-c2ccccc2)c(=O)c1C(c1ccccc1O)c1c(C)[nH]n(-c2ccccc2)c1=O,67*,GIV Gai FP conf=64;GIV Gai AS conf=17967*
COc1ccc(C(c2c(C)[nH]n(-c3ccccc3)c2=O)c2c(C)[nH]n(-c3ccccc3)c2=O)c(OC)c1,111,
Cc1[nH]n(-c2ccccc2)c(=O)c1C(c1ccc(Cl)cc1)c1c(C)[nH]n(-c2ccccc2)c1=O,110,
Cc1[nH]n(-c2ccccc2)c(=O)c1C(c1ccccc1Cl)c1c(C)[nH]n(-c2ccccc2)c1=O,107,
COc1ccc(C(c2c(C)[nH]n(-c3ccccc3)c2=O)c2c(C)[nH]n(-c3ccccc3)c2=O)cc1OC,76*,GIV Gai FP conf=44*;GIV Gai AS conf=4694*
Cc1[nH]n(-c2ccccc2)c(=O)c1C(c1ccc(OCc2ccccc2)cc1)c1c(C)[nH]n(-c2ccccc2)c1=O,100,

# Screens: PubChem BioAssay, ICCB-Longwood Screening Facility, Harvard Medical School
